Reference: patent publication US9403874B2, “Peptides and use thereof” (IL YANG PHARM. CO.,LTD., priority 2012, dated 2016)

What was measured:
Type in all cases: cell-based
Details in all cases: 100 ng/me of peptide; EBV-infected B cells stimulated with anti-CD150; ELISA of culture supernatant
[1] = tested on: IL-1A; experiment: Reduction of IL-1A secretion in activated B cells (ELISA)
Method: (§1) In order to determine the activity of the novel peptides synthesized in Example 1 for reducing the secretion of inflammatory cytokines, the activated pathogenic B cells were treated with each of the 18 types of synthesized novel peptides and the reduction in secretion of inflammatory cytokines from the B cells was monitored.
(§2) Specifically, in order to determine whether the novel peptides could weaken the pathogenic B cells which are involved in the development of disease symptoms, the in vitro B cells model which is similar to the joint infiltrative B cells of rheumatoid arthritis was used. The activated pathogenic B cell was generated by stimulating Ebstein Barr virus (EBV)-infected B cells with anti-CD150 antibodies, and the cells were treated with […] of each of the 18 types of novel peptide.
(§3) In order to confirm the effect of 18 types of novel peptides in reducing inflammatory cytokines, the secretion amount of various cytokines (IL-1A, IL-1B, IL-2, IL-4, IL-5, IL-6, IL-8, IL-10, IL-12A, IL-13, IL-17A, GM-CSF, IL-34) secreted from the activated B cells was measured. The supernatants of B cell culture were analyzed enzyme-linked immunosorbent assay (ELISA), and the difference in absorbance (450 nm-570 nm) of the color developing reagent was measured as test results. […]

[2] = tested on: IL-34; experiment: Reduction of IL-34 secretion in activated B cells (ELISA)
Method: as §1, §2, §3

[3] = tested on: IL-17A; experiment: Reduction of IL-17A secretion in activated B cells (ELISA)
Method: as §1, §2, §3

[4] = tested on: IL-12A; experiment: Reduction of IL-12A secretion in activated B cells (ELISA)
Method: as §1, §2, §3

[5] = tested on: GM-CSF; experiment: Reduction of GM-CSF secretion in activated B cells (ELISA)
Method: as §1, §2, §3

[6] = tested on: IL-6; experiment: Reduction of IL-6 secretion in activated B cells (ELISA)
Method: as §1, §2, §3

[7] = tested on: IL-5; experiment: Reduction of IL-5 secretion in activated B cells (ELISA)
Method: as §1, §2, §3

[8] = tested on: IL-4; experiment: Reduction of IL-4 secretion in activated B cells (ELISA)
Method: as §1, §2, §3

[9] = tested on: IL-2; experiment: Reduction of IL-2 secretion in activated B cells (ELISA)
Method: as §1, §2, §3

[10] = tested on: IL-13; experiment: Reduction of IL-13 secretion in activated B cells (ELISA)
Method: as §1, §2, §3

[11] = tested on: IL-10; experiment: Reduction of IL-10 secretion in activated B cells (ELISA)
Method: as §1, §2, §3

[12] = tested on: IL-8; experiment: Reduction of IL-8 secretion in activated B cells (ELISA)
Method: as §1, §2, §3

[13] = tested on: IL-1B; experiment: Reduction of IL-1B secretion in activated B cells (ELISA)
Method: as §1, §2, §3

Substance	Inhibition rate of each cytokine compared to CD150-stimulated EBV-t B cells (%) IL-1A [1]	Inhibition rate of each cytokine compared to CD150-stimulated EBV-t B cells (%) IL-34 [2]	Inhibition rate of each cytokine compared to CD150-stimulated EBV-t B cells (%) IL-17A [3]	Inhibition rate of each cytokine compared to CD150-stimulated EBV-t B cells (%) IL-12A [4]	Inhibition rate of each cytokine compared to CD150-stimulated EBV-t B cells (%) GM-CSF [5]	Inhibition rate of each cytokine compared to CD150-stimulated EBV-t B cells (%) IL-6 [6]	Inhibition rate of each cytokine compared to CD150-stimulated EBV-t B cells (%) IL-5 [7]	Inhibition rate of each cytokine compared to CD150-stimulated EBV-t B cells (%) IL-4 [8]	Inhibition rate of each cytokine compared to CD150-stimulated EBV-t B cells (%) IL-2 [9]	Inhibition rate of each cytokine compared to CD150-stimulated EBV-t B cells (%) IL-13 [10]	Inhibition rate of each cytokine compared to CD150-stimulated EBV-t B cells (%) IL-10 [11]	Inhibition rate of each cytokine compared to CD150-stimulated EBV-t B cells (%) IL-8 [12]	Inhibition rate of each cytokine compared to CD150-stimulated EBV-t B cells (%) IL-1B [13]
SIS-1#12 (DG; SIS-1#12 peptide)	0.3%	0.3%	0.3%	2.9%	1.0%	3.1%	0.9%	1.3%	1.2%	0.9%	0.3%	0.1%	1.3%
SIS-1#13 (RD; SIS-1#13 peptide)	1.0%	0.1%	0.7%	1.2%	0.5%	1.2%	2.5%	1.6%	1.6%	0.5%	1.0%	0.7%	1.2%
